Source: patent US10329302B2, “Bicyclic-fused heteroaryl or aryl compounds” (Pfizer Inc., priority 2014, dated 2019)

The chains behind the UniProt entries cited, without tags or fusion partners.
UniProt Q9NWZ3, whole entry: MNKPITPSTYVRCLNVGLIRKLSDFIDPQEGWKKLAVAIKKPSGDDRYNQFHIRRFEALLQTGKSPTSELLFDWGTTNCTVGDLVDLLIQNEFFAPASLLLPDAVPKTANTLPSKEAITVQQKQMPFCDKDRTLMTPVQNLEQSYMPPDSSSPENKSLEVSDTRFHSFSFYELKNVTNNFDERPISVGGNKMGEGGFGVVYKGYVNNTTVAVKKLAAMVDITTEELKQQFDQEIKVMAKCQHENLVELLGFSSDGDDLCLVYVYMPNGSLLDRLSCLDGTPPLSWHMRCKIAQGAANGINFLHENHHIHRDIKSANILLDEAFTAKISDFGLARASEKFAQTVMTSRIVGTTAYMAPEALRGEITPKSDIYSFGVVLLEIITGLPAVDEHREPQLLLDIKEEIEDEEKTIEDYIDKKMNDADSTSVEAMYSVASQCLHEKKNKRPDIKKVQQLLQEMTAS

Biological target: human IRAK4 FL (Full Length) (Homo sapiens (Human), UniProt Q9NWZ3)
Experiment: IRAK4 Enzymatic DELFIA Assay, Protocol A
Type: biochemical
Details: 0.6 mM ATP (KM)

Point of comparison: `COc1cc2c(OC[C@H]3NC(=O)[C@@H](F)[C@@H]3C)nccc2cc1C(N)=O` [Example 203, 1-{[(2S,3R,4S)-4-fluoro-3-methyl-5-oxopyrrolidin-2-yl]methoxy}-7-methoxyisoquinoline-6-carboxamide], IC50 3.5 nM. Against it:
- COc1cc2c(OC[C@@H]3CCC(=O)N3)nccc2cc1C(N)=O [Example 121, 7-methoxy-1-{[(2S)-5-oxopyrrolidin-2-yl]methoxy}isoquinoline-6-carboxamide] — 2.2-fold higher, 7.6 nM
- CCOc1cc2c(OC[C@@H]3CCC(=O)N3)nccc2cc1C(N)=O [Example 122, 7-ethoxy-1-{[(2S)-5-oxopyrrolidin-2-yl]methoxy}isoquinoline-6-carboxamide] — 6.9-fold higher, 24 nM
- COc1cc2c(OC[C@H]3NC(=O)[C@H](F)[C@H]3C)nccc2cc1C(N)=O [Example 188, 1-{[(2S,3S,4R)-4-fluoro-3-methyl-5-oxopyrrolidin-2-yl]methoxy}-7-methoxyisoquinoline-6-carboxamide] — 1.8-fold lower, 1.9 nM
- COc1cc2c(OC[C@H]3NC(=O)[C@@H](F)[C@H]3C)nccc2cc1C(N)=O [Example 189, 1-{[(2S,3S,4S)-4-fluoro-3-methyl-5-oxopyrrolidin-2-yl]methoxy}-7-methoxyisoquinoline-6-carboxamide] — 12-fold lower, 0.3 nM
- CC[C@H]1CC(=O)N[C@@H]1COc1nccc2cc(C(N)=O)c(OC)cc12 [Example 244, 1-{[(2S,3S)-3-ethyl-5-oxopyrrolidin-2-yl]methoxy}-7-methoxyisoquinoline-6-carboxamide] — within 1.5-fold, 4.7 nM
- CC[C@@H]1CC(=O)N[C@@H]1COc1nccc2cc(C(N)=O)c(OC)cc12 [Example 246, 1-{[(2S,3R)-3-ethyl-5-oxopyrrolidin-2-yl]methoxy}-7-methoxyisoquinoline-6-carboxamide] — 7-fold lower, 0.5 nM
- COc1cc2c(OC[C@H]3NC(=O)[C@@H](C)[C@H]3C)nccc2cc1C(N)=O [Example 247, 1-{[(2S,3R,4S)-3,4-dimethyl-5-oxopyrrolidin-2-yl]methoxy}-7-methoxyisoquinoline-6-carboxamide] — 8.3-fold higher, 29 nM
- COc1cc2c(OC[C@H]3NC(=O)[C@H](C)[C@H]3C)nccc2cc1C(N)=O [Example 248, 1-{[(2S,3R,4R)-3,4-dimethyl-5-oxopyrrolidin-2-yl]methoxy}-7-methoxyisoquinoline-6-carboxamide] — within 1.5-fold, 3.7 nM
- COc1cc2c(OC[C@H]3CCC(=O)N3)nccc2cc1C(N)=O [Example 255, 7-methoxy-1-{[(2R)-5-oxopyrrolidin-2-yl]methoxy}isoquinoline-6-carboxamide] — 480-fold higher, 1680 nM
- COc1cc2c(OC[C@@H]3CCC(=O)N3)ccnc2cc1C(N)=O [Example 262, 6-methoxy-4-{[(2S)-5-oxopyrrolidin-2-yl]methoxy}quinoline-7-carboxamide] — within 1.5-fold, 4.7 nM
